Test results published in patent US20090148535A1, “METHOD FOR TREATING CANCER USING INTERFERENCE RNA” (MINERVA BIOTECHNOLOGIES CORPORATION, priority 2007, published 2009).

Tests used:
Assay type in all cases: cell-based
BT474 cells = assay: Growth of BT474 cells in HERCEPTIN; settings: HERCEPTIN 0-3 ug/ml; cell counts three days post-treatment
Protocol: (§1) Cells were plated in 96 well plates at 10,000 cells/well, six wells/condition. […] Three days later, the remaining cells were counted using a hemocytometer.
(§2) Percent Normalized Growth was then calculated: Percent Normalized Growth=[(Day 3 cell counts with Antibody Added )−(Zero-day cell counts)]/[(Day 3 Cell counts without antibody added)−(Zero-day cell counts)]×100%

BTRes1 cells = assay: Growth of BTRes1 cells in HERCEPTIN; settings: HERCEPTIN 0-3 ug/ml; cell counts three days post-treatment
Protocol: as §1, §2

BTRes2 cells = assay: Growth of BTRes2 cells in HERCEPTIN; settings: HERCEPTIN 0-3 ug/ml; cell counts three days post-treatment
Protocol: as §1, §2

MUC1* = assay: Western blot of MUC1* in cells made HERCEPTIN resistant; settings: BTRes1 and BTRes2 vs BT474; cultured in 1 ug/ml HERCEPTIN for 3 months
full-length MUC1 = assay: Western blot of full-length MUC1 in cells made HERCEPTIN resistant; settings: breast tumor cells that acquired resistance to HERCEPTIN

Substance: HERCEPTIN: humanized monoclonal antibody that acts on the HER2/neu (erbB2) receptor
- cell growth (BT474 cells): dose-dependent inhibition of cell growth
- cell growth (BTRes1 cells): unaffected
- cell growth (BTRes2 cells): unaffected
- increase in the expression of MUC1* (MUC1*): 4-6 ×
- amount of full-length MUC1 (full-length MUC1): no changes
